Laboratory results taken from patent US20140275489A1 (Regeneron, published 2014).

Molecular target: T1, full-length human APLNR (amino acids 1-380 of accession number NP-005152.1) (human, UniProt P35414 1-380)
T1 sequence (looked up): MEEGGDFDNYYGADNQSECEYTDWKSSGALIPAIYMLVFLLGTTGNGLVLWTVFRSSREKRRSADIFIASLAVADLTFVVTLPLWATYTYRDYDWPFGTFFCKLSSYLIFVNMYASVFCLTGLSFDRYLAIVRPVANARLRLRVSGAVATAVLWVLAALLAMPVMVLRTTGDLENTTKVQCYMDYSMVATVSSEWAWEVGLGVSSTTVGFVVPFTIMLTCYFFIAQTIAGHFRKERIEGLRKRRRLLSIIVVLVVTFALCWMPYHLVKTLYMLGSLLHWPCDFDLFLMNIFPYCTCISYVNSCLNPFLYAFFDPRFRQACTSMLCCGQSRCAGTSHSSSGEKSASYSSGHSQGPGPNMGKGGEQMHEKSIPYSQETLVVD
Assay: cell-based or functional assay

QRPRLSHKGPMPA [Apelin-F13A]
EC50 (M), CRE assay (cAMP reporter) in HEK293/CRE-luc/hAPLNR cells: 1.03e-10 M
